Values of other authors, collected in article PMC9321663, “The DevTox Germ Layer Reporter Platform: An Assay Adaptation of the Human Pluripotent Stem Cell Test” (Toxics, 2022).

Settings: Table S2; cited from earlier work

| SMILES | Development Toxicant Classification |
| --- | --- |
| OB(O)O [Boric acid] | Positive |
| CCCc1cc(=O)[nH]c(=S)[nH]1 | Positive |
